# Measurements taken from PMC9871890.
# The chains behind the UniProt entries cited, without tags or fusion partners. Residues count along the entry.
# UniProt P02745, 23-245: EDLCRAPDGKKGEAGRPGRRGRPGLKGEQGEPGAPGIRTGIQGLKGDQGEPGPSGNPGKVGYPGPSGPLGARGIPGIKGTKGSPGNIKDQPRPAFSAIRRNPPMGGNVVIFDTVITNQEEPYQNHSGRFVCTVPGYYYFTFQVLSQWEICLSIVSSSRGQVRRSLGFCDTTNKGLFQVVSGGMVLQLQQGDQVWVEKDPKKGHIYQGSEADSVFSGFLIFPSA
# human C1q (Native Human C1q protein, abcam), UniProt P02746, 28-253: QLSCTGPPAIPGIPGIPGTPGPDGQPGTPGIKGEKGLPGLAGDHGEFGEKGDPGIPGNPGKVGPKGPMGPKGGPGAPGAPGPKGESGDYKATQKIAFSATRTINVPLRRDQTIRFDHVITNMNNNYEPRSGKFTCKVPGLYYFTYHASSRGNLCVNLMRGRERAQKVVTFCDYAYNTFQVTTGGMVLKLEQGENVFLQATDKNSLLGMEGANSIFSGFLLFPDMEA
# human C1q (Native Human C1q protein, abcam), UniProt P02747, 29-245: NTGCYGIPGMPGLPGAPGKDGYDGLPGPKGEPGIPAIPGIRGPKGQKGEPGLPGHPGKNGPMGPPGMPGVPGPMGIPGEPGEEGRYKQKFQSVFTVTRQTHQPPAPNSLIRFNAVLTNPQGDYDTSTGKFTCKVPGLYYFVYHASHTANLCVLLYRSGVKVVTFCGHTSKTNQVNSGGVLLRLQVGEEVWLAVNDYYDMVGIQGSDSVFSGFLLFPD
# Molecular target: anti-EGFR/HER2 bispecific antibody
# Test: SPR; Biacore T200, sandwich assay; BsAb (1 µg/mL) captured on a Protein L chip, C1q in 2-fold dilutions from 5 nM flowed over at 30 µL/min; HBS-EP pH 7.4
substance,measurement,value
"human C1q (Native Human C1q protein, abcam) (from UniProt P02745 23-245; P02746 28-253; P02747 29-245) (complex)",Kd,6.4 nM
